Bounds are passed on as bounds.

By UniProt entry, the sequences of proteins in these tests, tags left out.
UniProt P04150, whole entry: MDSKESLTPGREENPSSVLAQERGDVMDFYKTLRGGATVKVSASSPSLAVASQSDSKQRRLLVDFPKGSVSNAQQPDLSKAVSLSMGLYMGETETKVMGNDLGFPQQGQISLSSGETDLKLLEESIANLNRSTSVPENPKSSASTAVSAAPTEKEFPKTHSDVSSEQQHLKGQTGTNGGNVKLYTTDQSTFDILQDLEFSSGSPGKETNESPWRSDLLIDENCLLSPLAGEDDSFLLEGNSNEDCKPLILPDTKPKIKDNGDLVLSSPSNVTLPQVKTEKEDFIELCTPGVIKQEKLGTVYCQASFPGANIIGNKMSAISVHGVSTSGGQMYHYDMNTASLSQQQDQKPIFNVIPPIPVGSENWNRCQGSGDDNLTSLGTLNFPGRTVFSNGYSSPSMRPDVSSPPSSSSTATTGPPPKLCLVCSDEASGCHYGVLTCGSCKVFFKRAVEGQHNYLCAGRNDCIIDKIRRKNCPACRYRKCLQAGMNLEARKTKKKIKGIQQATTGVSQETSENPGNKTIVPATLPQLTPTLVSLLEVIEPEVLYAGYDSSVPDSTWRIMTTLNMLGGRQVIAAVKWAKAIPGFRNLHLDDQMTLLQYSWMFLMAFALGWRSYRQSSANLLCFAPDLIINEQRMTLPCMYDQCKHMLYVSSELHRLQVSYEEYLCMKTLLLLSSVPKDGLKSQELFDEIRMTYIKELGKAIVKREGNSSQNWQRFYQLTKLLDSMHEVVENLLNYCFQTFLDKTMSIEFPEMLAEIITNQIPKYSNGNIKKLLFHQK

For the test, the target named is Glucocorticoid Receptor (GR) (Homo sapiens, UniProt P04150). In words: GR Florescence Polarization Assay (PolarScreen Glucocorticoid Receptor Competitor Assay, Red). The following applies: read-out: GR binding; Fluorescense polarization binding ranges; competition with fluorescent glucocorticoid, incubated overnight at 4° C. The procedure:
GR Florescence Polarization Assay Florescence polarization assays were carried out using the PolarScreen™ Glucocorticoid Receptor Competitor Assay, Red from Invitrogen (P2893). The assay buffer was prepared according to the manufacturer's protocol and used to dilute the fluorescent glucocorticoid and GR. Compounds were prepared and serial diluted 1:4 in DMSO. Compound, fluorescent glucocorticoid and GR were added in a final volume of 20 μL and incubated overnight at 4° C. Fluorescent polarization was measured on the Perkinelmer Envision®.
For the compound `CC[C@@]12CC[C@](O)(CC(C)C)C[C@@H]1CCOc1cc(C(=O)Nc3cccnc3C)ccc12`, the IC50 was less than 100 nM.
As for `Cn1nccc1NC(=O)c1ccc2c(c1)CCC[C@H]1C[C@](O)(C(F)(F)F)CC[C@]21Cc1ccccc1`, the figure is 100 to 1000 nM; as for `CC[C@]12CC[C@@](O)(CC3CC3)C[C@H]1CCOc1cc(C(=O)Nc3cccnc3C)ccc12`, less than 100 nM; as for `CC[C@]12CC[C@@](O)(CC(C)C)C[C@H]1CCOc1cc(C(=O)Nc3cccnc3C)ccc12`, 100 to 1000 nM.
In the case of `CCC[C@@]1(O)CC[C@@]2(CC(F)(F)F)c3ccc(C(=O)Nc4cccnc4C)cc3CCC[C@H]2C1` (racemic) [Example 52], the IC50 is less than 100 nM.
Next, `CC[C@@]12CC[C@](O)(CC3CC3)C[C@@H]1CCOc1cc(C(=O)Nc3cccnc3C)ccc12` (relative stereo): less than 100 nM; `CCOC[C@@]1(O)CC[C@@]2(CC)c3ccc(C(=O)Nc4cccnc4C)cc3CCC[C@H]2C1` (relative stereo): less than 100 nM; `CC[C@@]12CC[C@](O)(CC(C)C)C[C@@H]1CCOc1cc(C(=O)Nc3cccnc3C)ccc12` (relative stereo): less than 100 nM.
Next, `CC[C@@]12CC[C@](O)(CC(C)C)C[C@@H]1COCc1cc(C(=O)Nc3cccnc3C)ccc12`: less than 100 nM.
As to `CCC[C@]1(O)CC[C@]2(CC(F)(F)F)c3ccc(C(=O)Nc4cccnc4C)cc3CCC[C@@H]2C1`, the IC50 is less than 100 nM.
For the compound `CC[C@]1(O)CC[C@]2(Cc3ccccc3)c3ccc(C(=O)Nc4cccnc4C)cc3C=CC[C@@H]2C1`, the IC50 lay within 100 to 1000 nM.
Next, `Cn1nccc1NC(=O)c1ccc2c(c1)CCC[C@@H]1C[C@@](O)(C(F)(F)F)CC[C@@]21Cc1ccccc1`: less than 100 nM; `CC[C@@]12CC[C@](O)(CC3CC3)C[C@@H]1CCOc1cc(C(=O)Nc3cccnc3C)ccc12`: less than 100 nM.
Next, `Cc1cnccc1NC(=O)c1ccc2c(c1)CCC[C@@H]1C[C@@](O)(C(F)(F)F)CC[C@@]21Cc1ccccc1`: less than 100 nM; `CCOC[C@]1(O)CC[C@]2(Cc3ccccc3)c3ccc(C(=O)Nc4cccnc4C)cc3CCC[C@@H]2C1`: 100 to 1000 nM.
As for `CC[C@]1(O)CC[C@]2(Cc3ccccc3)c3ccc(C(=O)Nc4cnc(C)nc4C)cc3CCC[C@@H]2C1`, the figure is 100 to 1000 nM; as for `CC[C@@]1(O)CC[C@@]2(Cc3ccccc3)c3ccc(C(=O)Nc4cccnc4C)cc3C=CC[C@H]2C1`, less than 100 nM.

These data come from patent US20120238549A1, “Nuclear Hormone Receptor Modulators” (ABBOTT LABORATORIES, priority 2011, published 2012).
